Experimental data: article PMC5777782 (Oncotarget, 2017)

Legend:
[1] = biological target: the molecule itself; test: AUC; sedimentation velocity, laser interferometry, 42,000 rpm, 20°C, protein at 0.5 mg/ml, with 5 mM AMP
[2] = biological target: the molecule itself; test: AUC; sedimentation velocity, laser interferometry, 42,000 rpm, 20°C, protein at 0.1, 0.5 and 1 mg/ml, without AMP; distribution of monomers, dimers and tetramers

B1: wild-type human muscle fructose-1,6-bisphosphatase (FBP2) (enzyme, UniProt O00757 1-339, looked up)
chain: MTDRSPFETDMLTLTRYVMEKGRQAKGTGELTQLLNSMLTAIKAISSAVRKAGLAHLYGIAGSVNVTGDEVKKLDVLSNSLVINMVQSSYSTCVLVSEENKDAIITAKEKRGKYVVCFDPLDGSSNIDCLASIGTIFAIYRKTSEDEPSEKDALQCGRNIVAAGYALYGSATLVALSTGQGVDLFMLDPALGEFVLVEKDVKIKKKGKIYSLNEGYAKYFDAATTEYVQKKKFPEDGSAPYGARYVGSMVADVHRTLVYGGIFLYPANQKSPKGKLRLLYECNPVAYIIEQAGGLATTGTQPVLDVKPEAIHQRVPLILGSPEDVQEYLTCVQKNQAGS
notes: human muscle fructose-1,6-bisphosphatase FBP2, tag-free, on pETite plasmid; Tag-free construct; By ultracentrifugation it is a mixture of tetramers, dimers and monomers; also called WT FBP2; FBP2 WT; source: E. coli Hi-control BL21(DE3), purified (ammonium sulfate, cellulose phosphate)
stoichiometry N [1]: 2
stoichiometry N [2]: 4
